Patent US11691972B2, “Compounds for targeted degradation of BRD9” (C4 Therapeutics, Inc., priority 2020, dated 2023)

Protein sequences, listed by entry. Tags and fused reporters are not part of them.
UniProt Q9H8M2, whole entry: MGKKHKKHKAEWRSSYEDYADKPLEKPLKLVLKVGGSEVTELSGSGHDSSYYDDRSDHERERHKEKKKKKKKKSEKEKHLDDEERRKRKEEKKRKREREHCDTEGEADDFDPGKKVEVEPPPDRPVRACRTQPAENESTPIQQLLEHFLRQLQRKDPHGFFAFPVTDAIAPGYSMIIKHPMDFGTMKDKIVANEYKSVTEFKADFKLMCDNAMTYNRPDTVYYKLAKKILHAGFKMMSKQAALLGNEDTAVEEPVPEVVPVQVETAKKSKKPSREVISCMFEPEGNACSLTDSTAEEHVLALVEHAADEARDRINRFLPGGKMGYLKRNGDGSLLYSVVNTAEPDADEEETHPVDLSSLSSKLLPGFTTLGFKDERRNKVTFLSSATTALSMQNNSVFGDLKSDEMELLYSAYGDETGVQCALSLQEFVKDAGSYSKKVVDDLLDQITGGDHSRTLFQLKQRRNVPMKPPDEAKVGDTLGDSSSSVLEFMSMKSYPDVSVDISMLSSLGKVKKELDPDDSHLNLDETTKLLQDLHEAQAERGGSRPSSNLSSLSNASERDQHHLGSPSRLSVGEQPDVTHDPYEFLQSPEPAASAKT

Molecular target: BRD9 (Homo sapiens, UniProt Q9H8M2)
Test: HiBiT BRD9 degradation assay in 293T.166 (BRD9-HiBiT) cells
Conditions: read-out: HiBiT-Degradation 293T.166 BRD9 2.0 hours (DC50), Table 1, 293T.166 cells, class symbols, tested form: TFA
Procedure: Selected compounds were tested in a BRD9 degradation assay using the HiBit Method.
Dulbecco's modified Eagle medium (DMEM) without phenol red and fetal bovine serum (FBS) were purchased from Gibco (Grand Island, N.Y., USA). Nano-Glo® HiBiT Lytic Assay System was purchased from Promega (Madison, Wis., USA). 293T.166 (BRD9-HiBiT) cell line, endogenously expressing BRD9 with HiBiT fusion tag via CRISPR and ectopically expressing LgBiT tag, was purchased from Promega (Madison, Wis., USA). 293T.167 (BRD7-HiBiT) cell line, endogenously expressing BRD7 with HiBiT fusion tag via CRISPR and ectopically expressing LgBiT tag, was purchased from Promega (Madison, Wis., USA). 293T.92 (BRD4-HiBiT) cell line, endogenously expressing BRD4 with HiBiT fusion tag via CRISPR and ectopically expressing LgBiT tag, was generated in-house. Cell culture flasks and 384-well microplates were acquired from VWR (Radnor, Pa., USA).
BRD9 degradation was determined based on quantification of luminescent signal using Nano-Glo® HiBiT Lytic Assay kit. Test compounds were added to the 384-well plate from a top concentration of 10 μM with 11 points, half log titration in duplicates. […] BRD7 and BRD4 degradation was similarly determined with 293T.167 cells and 293T.92 cells, respectively. […] Luminescence was acquired on EnVision™ Multilabel Reader (PerkinElmer, Santa Clara, Calif., USA).

For `COc1cc(-c2cn(C)c(=O)c3[nH]ncc23)cc(OC)c1CN1CCC(CC(=O)N2CCC(c3ccc(NC4CCC(=O)NC4=O)cc3)CC2)CC1` (stereo not shown), the DC50 was less than 100 nM.
